The source of these data is patent US20260001864A1, “COMPOUND CONTAINING SULFAMIDE STRUCTURE, AND PREPARATION METHOD THEREFOR AND APPLICATION THEREOF, AND PHARMACEUTICAL COMPOSITION AND APPLICATION” (Nanjing Shuohui Pharmatechnology Co., Ltd, priority 2021, published 2026).

Sequences of proteins named here, by UniProt entry; tags and fusion partners are left off.
UniProt P27112, whole entry: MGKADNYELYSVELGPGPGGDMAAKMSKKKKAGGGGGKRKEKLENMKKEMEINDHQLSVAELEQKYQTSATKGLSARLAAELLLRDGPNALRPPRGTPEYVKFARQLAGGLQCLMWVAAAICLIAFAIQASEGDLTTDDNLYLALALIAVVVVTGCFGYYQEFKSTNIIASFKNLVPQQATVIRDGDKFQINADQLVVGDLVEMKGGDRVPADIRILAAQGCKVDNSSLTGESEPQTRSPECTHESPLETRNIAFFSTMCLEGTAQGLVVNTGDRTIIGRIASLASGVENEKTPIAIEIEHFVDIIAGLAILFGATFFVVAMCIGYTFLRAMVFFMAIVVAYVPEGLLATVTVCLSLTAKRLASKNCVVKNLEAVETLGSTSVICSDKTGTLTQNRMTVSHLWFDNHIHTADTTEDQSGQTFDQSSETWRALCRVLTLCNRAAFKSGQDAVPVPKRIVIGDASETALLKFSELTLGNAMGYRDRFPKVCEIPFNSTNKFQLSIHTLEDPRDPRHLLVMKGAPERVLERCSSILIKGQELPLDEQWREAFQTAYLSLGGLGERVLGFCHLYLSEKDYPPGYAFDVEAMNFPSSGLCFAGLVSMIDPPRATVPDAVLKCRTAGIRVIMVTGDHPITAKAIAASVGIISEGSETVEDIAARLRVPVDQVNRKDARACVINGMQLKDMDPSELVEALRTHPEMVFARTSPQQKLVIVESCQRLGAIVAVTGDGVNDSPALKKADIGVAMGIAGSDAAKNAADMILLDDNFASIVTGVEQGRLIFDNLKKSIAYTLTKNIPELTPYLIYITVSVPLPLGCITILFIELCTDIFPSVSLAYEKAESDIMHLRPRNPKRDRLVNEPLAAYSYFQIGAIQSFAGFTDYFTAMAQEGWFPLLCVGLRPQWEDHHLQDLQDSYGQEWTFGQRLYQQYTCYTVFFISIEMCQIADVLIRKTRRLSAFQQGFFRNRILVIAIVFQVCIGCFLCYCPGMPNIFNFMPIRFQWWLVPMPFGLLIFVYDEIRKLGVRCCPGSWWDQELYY
UniProt P18597, whole entry partner: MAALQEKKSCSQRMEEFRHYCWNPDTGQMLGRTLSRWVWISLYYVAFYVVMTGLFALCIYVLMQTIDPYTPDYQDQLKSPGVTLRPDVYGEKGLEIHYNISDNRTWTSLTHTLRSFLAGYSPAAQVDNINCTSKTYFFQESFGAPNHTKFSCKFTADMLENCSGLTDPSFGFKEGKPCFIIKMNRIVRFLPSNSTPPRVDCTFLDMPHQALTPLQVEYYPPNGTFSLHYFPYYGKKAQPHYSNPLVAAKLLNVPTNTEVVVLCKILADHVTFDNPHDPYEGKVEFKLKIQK

Series [1] addresses H+/K+-ATPase (rabbit gastric mucosal microsomes) (Oryctolagus cuniculus (Rabbit), UniProt P27112). The experiment in a line: In vitro screening test of H+/K+-ATPase inhibition (malachite green). The conditions noted are these: read-out: IC50, inhibitory effect on H+/K+-ATPase activity, pH 6.5, 37° C. 30 min, tested form: HCl. The method, then: This test example evaluates the inhibitory effects of the compounds of the present invention on the activity of H+/K+-ATPase by an in vitro screening test, and expresses them with the IC50 values of the compounds (obtained by calculating the inhibition rates at different concentrations). […]
5 μL of rabbit gastric mucosal microsomes (H^+/K^+-ATPase) was added to 45 μL of buffer II, then 5 μL of compound solution was added, and then 5 μL of 5 mM ATP solution was added to start the reaction and pre-react at 37° C. for 30 min. 15 μL of malachite green solution was added to terminate the reaction, balancing was conducted at room temperature for 20 min, and read the optical absorbance at 620 nm. […]

The test system of series [2] is histamine-induced gastric acid secretion. The experiment in a line: Inhibition of histamine-induced gastric acid secretion in rats (pylorus ligation). The note with it: SD rats, total acid over 3 h after histamine, tested form: HCl. The method, then: 70 SPF-level SD rats with a weight of 180-220 g (Hangzhou Medical College (produced)), randomly grouped by weight, including negative control groups (isovolumetric saline) and model control groups (isovolumetric saline), and compounds obtained in the foregoing preparation examples of the present invention (i.e., compounds or compound hydrochlorides) (2 mg/kg or 4 mg/kg), 10 rats each group, including 5 males and 5 females. The rats were fasted, but were allowed to drink water for 24 h. After 24 h, the rats were given the compound at 1 ml/100 g by gavage, once in each group, and the rats in the negative control groups and the model groups were given an equal volume of saline by gavage. After that, the rats were anesthetized with chloral hydrate 300 mg/kg (1 ml/100 g) and fixed on a rat plate, and the abdominal wall was incised along the abdominal midline from the subxiphoid process of the sternum, and the incision was approximately 2-3 cm and was made on the left costal margin, and the stomach was exposed to the incision by gently pushing it with the fingers upwards. The pylorus was ligated with a thread under the pylorus (other neighboring vessels were not ligated), and the abdominal wall incision was sutured. The animals were given histamine dihydrochloride (30 mg/10 ml/kg) subcutaneously after 1 h of gavage of the test compound or saline. […]

The nature of series [3]: Rat tissue distribution test (oral, LC-MS-MS). On the set-up: Hepatic drug concentration: unit not given here. The conditions noted are these: tested form: HCl; for Hepatic drug concentration / Exposure level (0-4 h): oral 4 mg/kg; for Hepatic drug concentration: rat; for Ratio of exposure level: liver set to 1, oral 4 mg/kg; for Exposure level (0-4 h): male SD rats. As for the experimental part:
Three healthy male SD rats (body weight range 220-250 g, Zhejiang Charles River) were taken and assigned into one group (n=3). Compound 48, Compound A9 or comparison compound Vonoprazan were administered orally at a dose of 4 mg/kg.
Solvent for preparing pharmaceutical preparations: Pure water. The rats were fasted 4 h prior to the administration. […] The tissue was homogenized, and the corresponding blank tissue was used for preparation of a calibration curve and QC quantification. Blood samples should be centrifuged to extract plasma within 1 hour of collection and kept on crushed ice prior to the centrifugation. Plasma samples obtained by centrifugation were stored in a freezer until analysis. Centrifugation conditions: 4-10° C., 8000 rpm, 6 min. The concentration of the sample was determined by LC-MS-MS (MS03: Shimadzu LC30AD and API 4000)), and the exposure data were calculated by WINNOLIN software.

The structures appear in SMILES notation.

On to `CNCc1cc(-c2ccc(OCc3cccc(F)n3)cc2F)n(S(=O)(=O)c2cccnc2)c1`, for which the IC50 in series [1] came out at 169 nM.

`CNCc1cc(-c2ccc(OCC3CC3)cc2F)n(S(=O)(=O)c2cccnc2)c1`: the figures for the Acid inhibition rate in series [2] (2 mg/kg by gavage) and in series [2] (4 mg/kg by gavage) were 83% and 93%, respectively. The Hepatic drug concentration in series [3] (liver, 15 min) is listed as 1541.3; in series [3] (liver, 1 h), 846; in series [3] (liver, 2 h), 262; in series [3] (liver, 4 h), 31.5; in series [3] (liver, 24 h), 1.3. Further, the “Ratio of exposure level” value in series [3] (liver) was determined as 1; in series [3] (plasma), 0.02; in series [3] (stomach) it was 5.7. The “Exposure level (0-4 h)” value in series [3] (liver) was 2326.8 ng·h/mL; in series [3] (plasma), 43.1 ng·h/mL; in series [3] (stomach) it was 13224.3 ng·h/mL.
